Consider 1 substance from US10143748B2, “B-cell reduction using CD37-specific and CD20-specific binding molecules” (Emergent Product Development Seattle, LLC, priority 2005, dated 2018).

This experiment deals with BJAB cells. Nature of the experiment: Annexin V/PI apoptosis analysis, BJAB. The experiment is classed as cell-based. The conditions noted are these: in the presence of crosslinking, Ramos, Daudi, Table 2.

Take “TRU-015: recombinant (murine/human) single chain protein that binds to the CD20 antigen; SEQ ID NO: 4”: the “effect on apoptosis of cell lines” value is “induce some apoptosis”.
